Several values for one entry are separate records, joined by “and”; a condition that tells them apart may be missing. Equal entries are not always repeated.
How the values were obtained:
HCV RNA replicon = HCV RNA replicon assay in Huh7 ET cells; format: cell-based; settings: High Test Conc. 2, IFN control
Huh7 ET = assay: Cytotoxicity in Huh7 ET cells (HCV replicon assay); settings: High Test Conc. 2, IFN control

“IFN alpha-2b: IFN alpha-2b, control in the HCV RNA replicon assay” was tested, and the EC90 (HCV RNA replicon; Confirmatory dose response) was 0.54 Fold Dilution and 0.38 Fold Dilution, the “Actvty % inhib. virus control” value (HCV RNA replicon; Primary Assay, single dose) was 94.7% and 85.6% and the “Cytotoxicity % cell control” value (Huh7 ET; Primary Assay, single dose) was 95.1% and 81.6%. The IC90 (Huh7 ET; cytotoxicity, Confirmatory dose response) was >2.0 Fold Dilution and >2 Fold Dilution.

From patent US8765138B2 (priority 2004, dated 2014)
